In patent publication US6809107B1, “Neurotrophic pyrrolidines and piperidines, and related compositions and methods” (Ortho-McNeil Pharmaceutical, Inc., priority 1999, dated 2004):

Tested on: Primary Rat Hippocampal Cells
Experiment: Neurite outgrowth assay in primary rat hippocampal cells
Format: cell-based
Conditions: MAP-2 immunofluorescence, active if greater than mean DMSO-treated control
Method: Hippocampal cells are dissected from the brains of embryonic day 18 rat pups and dissociated with trypsin (1 mg/mL) and trituration. Cells are seeded at 30,000 cells/well in 96-well plates filled with 100 μL MEM and 10% FBS. At 7 days in culture, cells are fixed with 4% paraformaldehyde and immuno-fluorescence is performed.
Cultures are incubated with normal horse serum (1:50; Vector Labs) for about 20 min, rinsed and then incubated with primary antibody, microtubule associated-protein 2 (anti-mouse MAP-2; 1:1000; Chemicon) for about 2 h at about RT. Following primary antibody, cultures are rinsed and incubated with fluorescein anti-mouse IgG (rat absorbed; 1:50; Vector Labs) for about 1 h. After fluorescein incubation, the cultures are rinsed and read in PBS on a fluorescent plate reader (excitation: 485 nm; emission: 530 nm). […] The response to test compound is reported as percent of DMSO-treated control.

Compound: CCC(C)(C)C(=O)C(=O)N1CCCC1c1csc([C@@H]2CCCN2C(=O)C(=O)C(C)(C)CC)n1 (stereo partly shown) [Compound 43]
- Rat Hippocampal Cell Response: 120% of DMSO-treated control
